Experimental data reported in PubChem BioAssay AID602270 (The Scripps Research Institute Molecular Screening Center, 2012).
The list shows a part of the results, in another mix than the full data. Calls of active or inactive are those of the source. No stated cut-off is given here; in the data, active means activation above about 4%; inactive means the rest.

Test system: Methionine sulfoxide reductase A (Bos taurus)
Assay: bovine MsrA activators, retest, confirmation, biochemical, absorbance, HTS (AID 602270);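 further: enzyme coupled to thioredoxin and thioredoxin reductase with NADPH; 0% = vehicle wells and 100% = reference activator wells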
Details: purified bovine MsrA, absorbance read-out; at 10.6 µM; stronger effect = higher value

| Compound | activation |
| --- | --- |
| O=C(NC(Sc1ccncn1)C(Cl)(Cl)Cl)c1ccccc1 (configuration not stated) | inactive: 2.45% |
| CC(C)(C)C(=O)NC(Sc1ccncn1)C(Cl)(Cl)Cl (configuration not stated) | active: 4.53% |
